Assay results as given in PubChem BioAssay AID1246 (Columbia University Molecular Screening Center, 2008).
This is a selection; strong and weak results do not stand in their true shares. The source made the active and inactive calls.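 Rule for the calls: active = inhibition above the batch mean plus 3 SD, and confirmed as a hit on visual image review (cut at about 43% in these data); inconclusive = passes the inhibition cutoff but fails visual image review; inactive = the rest.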

Assay: E-selectin induction blockers in HUVEC – imaging, immunofluorescence, high content, primary screen (AID 1246);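 note: 0% = TNF-stimulated DMSO wells and 100% = unstimulated control wells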
Settings: HUVEC TNFa-induced E-selectin immunofluorescence, at 2 µM, active compounds read high

| SMILES | inhibition |
| --- | --- |
| CC(C)=N/N=C(\N)N[N+](=O)[O-] | inactive: 13.1% |
| CC1CCN(C(=O)Oc2c(Cl)cc(Cl)c3cccnc23)CC1 | inactive: -2.37% |
| CC(=O)N1C2C3N(C(C)=O)C1C1N(C(C)=O)C(C(N1C(C)=O)N3C(C)=O)N2C(C)=O | inactive: 12.8% |
| O=[N+]([O-])c1cccc2n[nH]nc12 | inactive: 9.91% |
| COc1ccc(C2=NCC(CBr)S2)cc1 (configuration not stated) | inactive: -18.6% |
| Cc1cc(SC(NC(=O)c2ccc(F)cc2)C(Cl)(Cl)Cl)ncn1 (configuration not stated) | inactive: 11.7% |
| CCOP(=O)(Nc1ccccc1)OCC | inactive: 6.69% |
| CC(C)CC(=O)NC(Sc1ccc(Cl)cc1)C(Cl)(Cl)Cl (configuration not stated) | inactive: 45.4% |
| Oc1ccccc1CNc1ccccn1 | inactive: -40.3% |
| O=C(NC(Sc1ccncn1)C(Cl)(Cl)Cl)c1ccccc1 (configuration not stated) | inactive: -5.94% |
| Cc1c2non([O-])c-2c(C)[n+](=O)[n+]1[O-] | inactive: -10.7% |
| CN1CCCC(OC(=O)C(c2ccccc2)c2ccccc2)C1 (configuration not stated) | inactive: -4.35% |
| Cc1ccc(N/C(=N/P(=O)(N2CCOCC2)N2CCOCC2)N2CCOCC2)cc1 | inactive: -22.8% |
| CC(=O)Nc1ccc(Oc2c([N+](=O)[O-])cc([N+](=O)[O-])cc2[N+](=O)[O-])cc1 | inactive: -35.4% |
| COC(=O)c1cc2c(s1)N=C(c1ccccc1)N(C)P2(=O)N1CCOCC1 (configuration not stated) | inactive: -32.6% |
| CC(=O)NC(SC(=S)N(CC(C)C)CC(C)C)C(Cl)(Cl)Cl (configuration not stated) | inactive: 7.99% |
| CCC(=O)N1C2C3N(C(=O)CC)C1C1N(C(=O)CC)C(C(N1C(=O)CC)N3C(=O)CC)N2C(=O)CC | inactive: 26% |
| CCOC(=O)NC(Sc1ccccc1)C(Cl)(Cl)Cl (configuration not stated) | inactive: 7.74% |
| C(Cc1nn[nH]n1)Cc1nn[nH]n1 | inactive: -12.5% |
| CC(=O)NC(SC(=S)N(C)C)C(Cl)(Cl)Cl (configuration not stated) | inactive: 3.99% |
| c1nnnn1CCn1cnnn1 | inactive: -12.7% |

| SMILES | inhibition |
| --- | --- |
| O=P(Nc1nccs1)(c1ccccc1)c1ccccc1 | inactive: -5.37% |
| CC1(CBr)Cn2c(nc3ccccc3c2=O)S1 (configuration not stated) | inactive: -2.02% |
| Clc1n[nH]nc1-c1nn[nH][15n]1 | inactive: -1.95% |
| O=P1(Nc2ccccn2)COc2ccccc2OC1 | inactive: 10.4% |
| Cc1ccc(OCC(=O)OC2CN3CCC2CC3)cc1 (configuration not stated) | inactive: 3.04% |
| Cc1nn(-c2ccccc2)c2c1P(=O)(N1CCOCC1)N(C)C(c1ccccc1)=N2 (configuration not stated) | inactive: -11.6% |
| CC1CCC(C(C)C)C(OP(=O)(Nc2ccccn2)c2ccccc2)C1 (configuration not stated) | inactive: -25.6% |
| O=[N+]([O-])c1ccc2c(c1)nnn2O | inactive: -36.5% |
| CCOP1(=S)c2c(C)nn(CCC#N)c2N=C(c2ccc(F)cc2)N1C (configuration not stated) | inactive: 16.3% |
| CCOP1(=S)c2c(C)nn(CCC#N)c2N=C(c2ccccc2F)N1C (configuration not stated) | inactive: 9.38% |
| O=P(Nc1nccs1)(c1ccccc1)c1nc2ccccc2s1 (configuration not stated) | inactive: -31.9% |
| COc1cc(C2NCCC3(OCCO3)C2(C)C)cc(OC)c1OC (configuration not stated) | inactive: 4.96% |
| CCOP(=O)(Nc1cccc2ccccc12)OCC | inactive: 7.72% |
| Cc1cccc(OCC(=O)OC2CN3CCC2CC3)c1 (configuration not stated) | inactive: 3.93% |
| O=C(OC1CN2CCC1CC2)C12CC3CC(CC(C3)C1)C2 (configuration not stated) | inactive: 0.09% |
| CCN(CC)C(=S)SC(NC=O)C(Cl)(Cl)Cl (configuration not stated) | inactive: 25.2% |
| ClCCSc1nnc(-c2cccnc2)o1 | inactive: -14.7% |
| Cc1cc(SC(NC(=O)c2ccccc2)C(Cl)(Cl)Cl)nc(C(C)C)n1 (configuration not stated) | inactive: -18.3% |
| CCC(C)N(CC(C)C)C(=S)SC(NC(C)=O)C(Cl)(Cl)Cl (configuration not stated) | inactive: -10.8% |
| O=C(COc1ccccc1)OC1CN2CCC1CC2 (configuration not stated) | inactive: -1.84% |
| COP1(=S)c2c(C)nn(CCC#N)c2N=C(c2ccc(F)cc2)N1C (configuration not stated) | inactive: -10% |
